The conditions of the data set: 101.33 kPa, Liquid.

Results on 1 molecule are retold here after the NIST ThermoML archive (doi:10.1021/je034022n).

Structures are written as SMILES. ± gives the expanded uncertainty stated by the source.

Regarding `CCCCOCCCC` [dibutyl ether], the mass density is 764.07 ± 2 kg/m3 (298.15 K), 759.73 ± 2 kg/m3 (303.15 K), 755.45 ± 2.1 kg/m3 (308.15 K) and 751.21 ± 2.1 kg/m3 (313.15 K). The speed of sound (308.15 K) was 1179 ± 5.2 m/s.

By mass density is commonly meant mass per unit of volume. The speed of sound is how fast a sound wave travels through the sample.
